Screening results as filed in PubChem.
ARNT-TACC3 inh: disruptors of human ARNT/TACC3 interaction; inhibition, % at 9.99 µM; AID 623870; Q9Y6A5; AlphaScreen His-ARNT PAS-B/GST-TACC3 binding, luminescence; TACC3 fragment carries E629A point mutation; hit rate 0.66% among 390,000;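 active means mean inhibition of replicates at least 50% and at least half of replicates each reaching 50%; inconclusive means half or more replicates reach 50% but mean below 50%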;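 further: 0% = complete ARNT plus TACC3 wells and 100% = ARNT alone without TACC3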
UUG fidelity: yeast start codon fidelity modulation | S. cerevisiae UUG-firefly luciferase reporter, luminescence/redox ratio | activity score, % at 18.7 µM | 350,000 tested, 0.13% active;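 active = replicate mean at a twofold rise or more, about +100% in these data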;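 also: firefly luciferase made from a UUG start codon reports start codon fidelity; reporter light over untreated wells divided by growth signal over untreated wells; some hits fall short of that in this replicate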
PglD inh: PglD (C. jejuni) enzyme inhibition | purified PglD enzyme, DTNB colorimetric CoA detection | hit rate 0.098% among 360,000 | inhibition, % at 12.5 µM | AID 602405; in the data active means inhibition above about 16%, passing the limit was not always enough; inconclusive means no clear call, values can overlap the other calls
CAL PDZ FP-1: inhibitors of human CAL PDZ peptide binding; Q9HD26; purified CAL PDZ, TMR-peptide fluorescence polarization, 1 h; inhibition, % at 20 µM; hit rate 0.02% among 330,000; AID 504414;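 active means highest replicate inhibition of at least 40%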;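 further: plate controls were DMSO neutral control wells for no effect and unlabeled competitor peptide control wells for full effect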
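Material: tagged CAL PDZ protein CerCALP, purified; buffer or medium: sodium phosphate/NaCl buffer pH 7.4 with TCEP, IgG, Thesit; also added: fluorescent TMR peptide probe; schedule: 1 h incubation at room temperature before polarization reading; technique: fluorescence polarization from S- and P-plane intensities, G-factor corrected; control set: unlabelled peptide and DMSO controls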
CAL PDZ FP-2: CAL PDZ (human) peptide binding inhibition; Q9HD26; purified CAL PDZ, TMR-peptide fluorescence polarization, 1 h; inhibition, % at 24.9 µM; hit rate 0.92% among 300,000;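 active means mean inhibition of at least 30% with at least half of replicates also reaching 30%; inconclusive means no clear call, values can overlap the other calls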;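 further: 0% = DMSO neutral control and 100% = excess unlabeled competitor peptide PRC23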
Vif inh: blocks HIV Vif function; hit rate 0.35% among 340,000; AID 602346; inhibition, % at 7.49 µM; HEK293T cells, Vif self-association by quenched fluorescence, imaging, 24 h; in the data active means inhibition above about 50%, passing the limit was not always enough; inconclusive means no clear call, values can overlap the other calls; inactive means below about 31%
Numbers without * were called inactive; ? = inconclusive; nt = not tested or not shown. A selection: hits, their analogues and other compounds. The true share with any hit is near 1.6%.

1. O=C(Nc1ccc(F)cc1)c1nc[nH]c1C(=O)Nc1ccccc1[N+](=O)[O-]
2. O=C(O)C1CC=CCC1C(=O)Nc1ccccc1 (stereo not drawn)
3. O=C(COC(=O)c1ccc(NC(=O)C2CC=CCC2C(=O)O)cc1)c1ccccc1 (stereo not drawn)
4. O=C1CS/C(=N/N=C/c2ccccc2)N1c1ccc(O)cc1
5. COc1ccc(C(=O)NC(=S)NCc2ccc(-c3nc4ccccc4o3)cc2)cc1OC
6. COc1ccc(-c2nc3ccccc3o2)cc1OC

Compound,1,2,3,4,5,6
ARNT-TACC3 inh,-3,0,5,3,0,-4
UUG fidelity,-9,-5,-5,-12,nt,-15
PglD inh,1,-8,6,-2,nt,-4
CAL PDZ FP-1,0,-1,nt,nt,-2,44*
CAL PDZ FP-2,-3,1,67*,79*,-4,-4
Vif inh,16,2,-1,-3,0,17

7. COc1ccc(S(=O)(=O)Nc2nccs2)cc1OC
8. O=[N+]([O-])c1ccc(Oc2cccc3cccnc23)c([N+](=O)[O-])c1
9. N#Cc1ccc(Oc2cccc3cccnc23)c([N+](=O)[O-])c1
10. O=C(N/N=C/c1c[nH]c2ccccc12)c1ccccc1
11. O=C(CCCn1c(=O)oc2ccccc21)N1CCc2ccccc2C1
12. O=C(CSCc1ccc(Cl)cc1)Nc1ccc(O)cc1C(=O)O

Compound,7,8,9,10,11,12
ARNT-TACC3 inh,-6,active,-1,3,active,46*
UUG fidelity,nt,nt,-14,-4,2,-7
PglD inh,nt,nt,-1,-3,-1,10
CAL PDZ FP-1,-7,-1,nt,0,-1,0
CAL PDZ FP-2,53*,1,-5,37*,3,3
Vif inh,8,8,14,?,-12,3

13. COc1cc(NC(=O)CSCc2ccc(Cl)cc2)c(C(=O)O)cc1OC
14. CCC(C(=O)OCn1nnc2ccccc2c1=O)c1ccccc1 (stereo not drawn)
15. C[C@H]1CN([C@@H](C)CO)C(=O)c2cc(NS(=O)(=O)c3ccccc3)ccc2O[C@H]1CN(C)S(=O)(=O)c1cccs1
16. O=C(NNS(=O)(=O)c1ccc(F)cc1)c1ccccc1
17. O=C(NNS(=O)(=O)c1ccc(F)cc1)c1ccccc1F
18. O=C(NNc1ccccn1)C(=O)NNS(=O)(=O)c1ccc(F)cc1

Compound,13,14,15,16,17,18
ARNT-TACC3 inh,-2,-1,0,3,-1,63*
UUG fidelity,-3,nt,-3,-17,-15,nt
PglD inh,-6,nt,-1,-5,-7,nt
CAL PDZ FP-1,-1,-1,nt,0,-5,-2
CAL PDZ FP-2,nt,54*,nt,2,41*,-1
Vif inh,0,-12,nt,0,-1,-6

19. O=C(N[C@@H]1CC[C@H](CCNS(=O)(=O)c2ccc(F)cc2)O[C@H]1CO)C1CC1
20. C=CCn1c(COc2ccc(OC)cc2)nnc1SC(C)C(=O)NC1CC1 (stereo not drawn)
21. CCC(c1nnc(SC(C)C(=O)NC2CC2)n1-c1ccc(OC)cc1)N(C)C (stereo not drawn)
22. CC(=O)c1sc(NC(=O)CCCc2nc3ccccc3c(=O)[nH]2)nc1-c1ccccc1
23. CCC(=O)N1C[C@@H](O)COC[C@@H]2O[C@@H](CC(=O)NCc3cc(F)cc(F)c3)CC[C@H]21
24. CCn1cc(C(=O)N[C@H](C(=O)O)C(C)C)c(=O)c2cc3c(cc21)OCO3

Compound,19,20,21,22,23,24
ARNT-TACC3 inh,-4,-3,-3,4,14,-31
UUG fidelity,29,-8,-7,-9,nt,-2
PglD inh,-3,-3,-4,4,15,-5
CAL PDZ FP-1,nt,-2,1,-1,nt,nt
CAL PDZ FP-2,nt,-2,68*,52*,nt,46*
Vif inh,nt,16,-8,-11,nt,2

Sorted by SMILES length (low to high): some entries from above.
18. O=C(NNc1ccccn1)C(=O)NNS(=O)(=O)c1ccc(F)cc1
24. CCn1cc(C(=O)N[C@H](C(=O)O)C(C)C)c(=O)c2cc3c(cc21)OCO3
22. CC(=O)c1sc(NC(=O)CCCc2nc3ccccc3c(=O)[nH]2)nc1-c1ccccc1
19. O=C(N[C@@H]1CC[C@H](CCNS(=O)(=O)c2ccc(F)cc2)O[C@H]1CO)C1CC1

Compound,18,24,22,19
ARNT-TACC3 inh,63*,-31,4,-4
UUG fidelity,nt,-2,-9,29
PglD inh,nt,-5,4,-3
CAL PDZ FP-1,-2,nt,-1,nt
CAL PDZ FP-2,-1,46*,52*,nt
Vif inh,-6,2,-11,nt

Going on with the list:
25. Cc1ccccc1-c1nn[nH]n1
26. Oc1ccc(N=Nc2ccccc2-c2nn[nH]n2)c(O)c1
27. O=C(Nc1ccc(Cl)c([N+](=O)[O-])c1)c1ccc2c(c1)OCCO2
28. Fc1ccccc1CNc1ccc(Cl)c(Cl)c1
29. CC(=O)N/N=C/c1cc(C(C)(C)C)cc(/C=N/NC(C)=O)c1O
30. O=C(C1=NN[C@@H]2C(=O)N(c3ccccc3C(F)(F)F)C(=O)[C@H]12)c1cnccn1

Compound,25,26,27,28,29,30
ARNT-TACC3 inh,-8,67*,-2,5,62*,-2
UUG fidelity,-10,-10,-10,-17,-31,nt
PglD inh,-3,-5,-4,0,-1,nt
CAL PDZ FP-1,0,-1,17,-1,-2,-1
CAL PDZ FP-2,nt,2,30*,-3,11,123*
Vif inh,-1,nt,-3,55*,-7,8

31. Cn1c2c(c(=O)n3ncnc13)CCCC2
32. CCS(=O)(=O)Nc1ccc2c(c1)C(=O)N(C)C[C@H](OC)[C@H](C)CN(C)[C@H](C)CO2
33. Nc1c(C(=O)Nc2ccccc2)nnn1-c1ccc2c(c1)OCCO2
34. Cc1ccc(NC(=O)c2nnn(-c3ccc4c(c3)OCCO4)c2N)cc1
35. O=C(C[C@H]1CC[C@H]2[C@@H](COC[C@H](O)CN2C(=O)c2cccnc2)O1)NCc1ccccc1
36. CN(c1ccc(OCC(=O)OCC(=O)Nc2ccccc2)cc1)S(=O)(=O)c1ccc(F)cc1

Compound,31,32,33,34,35,36
ARNT-TACC3 inh,-5,0,29,-3,6,1
UUG fidelity,nt,2,-35,2,nt,-2
PglD inh,nt,3,1,4,-2,-4
CAL PDZ FP-1,0,nt,-1,-1,nt,-4
CAL PDZ FP-2,48*,nt,80*,nt,nt,2
Vif inh,-3,nt,3,-13,nt,-1

37. CN(c1ccc(OCC(=O)OCC(=O)Nc2ccc([N+](=O)[O-])cc2)cc1)S(=O)(=O)c1cccs1
38. CN(C)C=Nc1c(Br)cc(Br)c2nonc12
39. CN(C)C=Nc1nonc1-c1ccccc1
40. O=C(CN1CCOCC1)NCC[C@@H]1CC[C@H](NC(=O)Nc2ccc(C(F)(F)F)cc2)[C@@H](CO)O1
41. O=C(CSc1ccccn1)N/N=C/c1ccccc1[N+](=O)[O-]
42. O=C(CSc1ccccn1)N/N=C/c1cc([N+](=O)[O-])ccc1O

Compound,37,38,39,40,41,42
ARNT-TACC3 inh,-4,1,-4,-13,-4,76*
UUG fidelity,-13,-12,nt,14,nt,nt
PglD inh,5,-3,nt,-3,nt,nt
CAL PDZ FP-1,0,0,-2,nt,-2,-1
CAL PDZ FP-2,95*,-5,-3,nt,3,1
Vif inh,9,70*,-5,nt,0,-1

43. O=C(N/N=C/c1cc([N+](=O)[O-])ccc1O)C1CCCCC1
44. O=C(Cn1nc2ccccc2n1)N/N=C/c1cc([N+](=O)[O-])ccc1O
45. Cc1ccc(S(=O)(=O)c2ccc([N+](=O)[O-])o2)cc1
46. CO[C@H]1CN(C)C(=O)c2cc(NS(=O)(=O)c3ccccc3C)ccc2OC[C@H](C)N(C)C[C@@H]1C
47. COc1cc(/C=N/NC(=O)CC#N)cc(Br)c1O
48. COC(=O)c1ccc(Cn2cc([N+](=O)[O-])cn2)cc1
49. CC(NC(=O)c1ccc(Cn2cc([N+](=O)[O-])cn2)cc1)c1ccccc1 (stereo not drawn)
50. CCn1cc(S(=O)(=O)CC(=O)Nc2ccc(C)cc2)c2ccccc21
51. COc1ccc(Br)cc1/C=N/n1c(C)nc2ccccc2c1=O

Compound,43,44,45,46,47,48,49,50,51
ARNT-TACC3 inh,67*,nt,-6,-2,58*,-5,3,5,1
UUG fidelity,nt,-22,nt,-9,nt,nt,nt,-15,-9
PglD inh,nt,-7,nt,2,nt,nt,nt,2,3
CAL PDZ FP-1,-1,0,0,nt,0,1,-1,0,-1
CAL PDZ FP-2,-1,-4,-2,nt,0,68*,-4,53*,-3
Vif inh,-1,-4,90*,nt,0,1,nt,-2,0
